This assay concerns the target Transient receptor potential cation channel subfamily A member 1 (Homo sapiens) (UniProt O75762). In words: Agonist activity at TRPA1. It counts as functional.

Chains of the proteins cited; added tags and fusions are not shown.
UniProt O75762, whole entry, looked up: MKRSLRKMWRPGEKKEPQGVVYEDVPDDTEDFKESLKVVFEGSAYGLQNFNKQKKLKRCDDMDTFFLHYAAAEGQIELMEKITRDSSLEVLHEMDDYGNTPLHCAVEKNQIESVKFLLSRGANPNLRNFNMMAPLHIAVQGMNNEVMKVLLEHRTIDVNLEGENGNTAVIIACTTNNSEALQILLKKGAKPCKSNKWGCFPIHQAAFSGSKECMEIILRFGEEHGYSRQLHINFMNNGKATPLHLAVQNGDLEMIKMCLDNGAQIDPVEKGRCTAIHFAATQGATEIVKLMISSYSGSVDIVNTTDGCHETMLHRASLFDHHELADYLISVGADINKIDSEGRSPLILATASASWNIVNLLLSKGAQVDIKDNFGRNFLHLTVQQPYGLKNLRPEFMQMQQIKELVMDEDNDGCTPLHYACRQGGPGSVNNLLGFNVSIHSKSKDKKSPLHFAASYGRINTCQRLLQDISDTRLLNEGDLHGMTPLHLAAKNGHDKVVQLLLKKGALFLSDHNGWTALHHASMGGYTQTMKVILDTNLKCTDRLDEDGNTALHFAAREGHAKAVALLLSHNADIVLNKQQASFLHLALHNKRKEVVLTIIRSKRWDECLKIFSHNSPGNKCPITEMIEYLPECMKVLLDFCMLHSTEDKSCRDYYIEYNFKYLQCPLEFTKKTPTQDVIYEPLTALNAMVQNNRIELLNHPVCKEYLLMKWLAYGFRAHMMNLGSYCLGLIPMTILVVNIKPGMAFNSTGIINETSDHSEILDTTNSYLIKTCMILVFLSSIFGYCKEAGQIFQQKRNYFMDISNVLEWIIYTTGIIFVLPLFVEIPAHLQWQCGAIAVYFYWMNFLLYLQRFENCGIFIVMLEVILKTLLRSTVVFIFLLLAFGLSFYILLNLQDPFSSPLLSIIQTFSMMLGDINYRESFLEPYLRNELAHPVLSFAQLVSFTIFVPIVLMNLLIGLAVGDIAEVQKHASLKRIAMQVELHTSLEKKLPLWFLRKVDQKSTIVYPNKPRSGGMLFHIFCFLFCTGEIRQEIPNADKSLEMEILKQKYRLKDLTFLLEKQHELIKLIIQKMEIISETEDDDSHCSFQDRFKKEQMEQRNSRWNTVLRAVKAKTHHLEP

For the molecule `C=CCN=C=S`, the Activity was found to be 10 µM.
